ChEMBL document CHEMBL1240449, “Tricyclononene carboxamide derivatives as novel anti-HIV-1 agents” (Eur J Med Chem, 2010)

Target: Protease (Human immunodeficiency virus 1, UniProt Q9YQ12)
Assay: Inhibition of HIV1 recombinant protease
Summary of the method: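 Recombinant HIV-1 protease, purified, in 0.1 mol/L sodium acetate pH 5.0 with 0.9 mol/L NaCl, 1 mmol/L DTT, 1 mmol/L EDTA and a fluorescent peptide substrate. Graded compound concentrations were preincubated in this buffer for 20 min at 37 °C, then enzyme was added to start the reaction. Indinavir at 10 nM served as control. Percent inhibition and IC50 were calculated.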

IC50: < 10 nM
SMILES: CC(C)(C)NC(=O)[C@@H]1CN(Cc2cccnc2)CCN1C[C@@H](O)C[C@@H](Cc1ccccc1)C(=O)N[C@H]1c2ccccc2C[C@H]1O
